Results: patent publication US11298431B2, “Method for labeling radioisotope radiolabeling compound and kit comprising the same for labeling radioisotope” (KOREA ATOMIC ENERGY RESEARCH INSTITUTE, priority 2018, dated 2022)
“And” between values parts separate entries of the source, which are not always exact repeats. Identical values can stand only once.

Test: In vivo biodistribution of 125I-labeled HSA in ICR male mice
Conditions: i.v.

[^125I] 10: HSA directly radioiodinated through tyrosine ring using [^125I] NaI and chloramine-T, for comparison
Blood radioactivity (0.5 h after injection): 30.1 % ID/g | Heart radioactivity (0.5 h after injection): 5.9 % ID/g | Kidney radioactivity (0.5 h after injection): 6.1 % ID/g | Large intestine radioactivity (0.5 h after injection): 0.88 % ID/g | Liver radioactivity (0.5 h after injection): 5.1 % ID/g | Lung radioactivity (0.5 h after injection): 8.1 % ID/g | Spleen radioactivity (0.5 h after injection): 3.6 % ID/g | Thyroid radioactivity (0.5 h after injection): 2.1 % ID/g | Blood radioactivity (3 h after injection): 25.3 % ID/g | Kidney radioactivity (3 h after injection): 5.3 % ID/g | Large intestine radioactivity (3 h after injection): 0.95 % ID/g | Liver radioactivity (3 h after injection): 3.0 % ID/g | Lung radioactivity (3 h after injection): 7.7 % ID/g | Stomach radioactivity (3 h after injection): 1.8 % ID/g | Thyroid radioactivity (3 h after injection): 15.3 % ID/g | Blood radioactivity (6 h after injection): 14.5 % ID/g | Heart radioactivity (6 h after injection): 3.5 % ID/g | Kidney radioactivity (6 h after injection): 5.5 % ID/g | Large intestine radioactivity (6 h after injection): 1.1 % ID/g | Liver radioactivity (6 h after injection): 2.8 % ID/g | Lung radioactivity (6 h after injection): 7.1 % ID/g | Small intestine radioactivity (6 h after injection): 1.9 % ID/g | Spleen radioactivity (6 h after injection): 2.8 % ID/g | Stomach radioactivity (6 h after injection): 5.8 % ID/g | Thyroid radioactivity (6 h after injection): 75.3 % ID/g | Blood radioactivity (24 h after injection): 8.3 % ID/g | Heart radioactivity (24 h after injection): 2.8 % ID/g | Kidney radioactivity (24 h after injection): 4.2 % ID/g | Large intestine radioactivity (24 h after injection): 1.2 % ID/g | Liver radioactivity (24 h after injection): 1.9 % ID/g | Lung radioactivity (24 h after injection): 5.2 % ID/g | Small intestine radioactivity (24 h after injection): 1.7 % ID/g | Thyroid radioactivity (24 h after injection): 255.1±66.21 % ID/g and 255.1 % ID/g | Blood radioactivity (36 h after injection): 6.1 % ID/g | Heart radioactivity (36 h after injection): 2.1 % ID/g | Kidney radioactivity (36 h after injection): 3.8 % ID/g | Large intestine radioactivity (36 h after injection): 1.0 % ID/g | Liver radioactivity (36 h after injection): 1.8 % ID/g | Lung radioactivity (36 h after injection): 4.9 % ID/g | Small intestine radioactivity (36 h after injection): 1.5 % ID/g | Spleen radioactivity (36 h after injection): 1.5 % ID/g | Stomach radioactivity (36 h after injection): 14.2 % ID/g | Thyroid radioactivity (36 h after injection): 395.2±59.98 % ID/g and 395.2 % ID/g
